ChEMBL document CHEMBL1138911 (Bioorg Med Chem Lett, 2006)

Chains of the proteins cited; added tags and fusions are not shown. Lines headed by an entry give the natural chain unless they say otherwise; changes in a name come on top.
UniProt P41145: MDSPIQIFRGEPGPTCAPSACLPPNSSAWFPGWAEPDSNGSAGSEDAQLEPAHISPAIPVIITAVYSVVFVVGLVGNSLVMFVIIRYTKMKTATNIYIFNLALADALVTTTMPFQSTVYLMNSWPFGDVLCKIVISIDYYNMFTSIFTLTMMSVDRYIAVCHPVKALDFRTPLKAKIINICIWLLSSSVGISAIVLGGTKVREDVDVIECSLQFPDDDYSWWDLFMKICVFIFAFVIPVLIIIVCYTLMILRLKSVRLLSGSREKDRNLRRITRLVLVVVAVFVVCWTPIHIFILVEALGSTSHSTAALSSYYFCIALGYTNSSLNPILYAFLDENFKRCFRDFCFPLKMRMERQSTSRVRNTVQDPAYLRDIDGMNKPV

Experiments:
Brain = assay: Stimulation of [35S]GTPgammaS binding in human brain cortical membrane relative to control
[1] = target: Kappa-type opioid receptor (Homo sapiens) (UniProt P41145); assay: Ratio for stimulation of [35S]GTP-gamma-S binding to kappa opioid receptor in human brain cortical membrane in absence to presence of norBNI

Question: `CO[C@]12CC[C@@]3(C[C@@H]1[C@@](C)(O)C1CCC1)C1Cc4ccc(O)c5c4[C@@]3(CCN1CC1CC1)[C@H]2O5` was tested. Which Activity (Brain) did it give?
Answer: 7.2%

Question: For `CN(C(=O)Cc1ccccc1)[C@H]1CC[C@@]2(CCCO2)C[C@@H]1N1CCCC1`, which Ratio [1] is on record?
Answer: 15.9

Question: And the Activity (Brain)?
Answer: 13.4%
